For 48 molecules, activity change, negative = inhibition results are on record in PubChem BioAssay AID1379 (National Center for Advancing Translational Sciences (NCATS), 2008).

The target in this assay is Luciferin 4-monooxygenase (Photuris pensylvanica) (UniProt Q27757). In words: Counterscreen for Luciferase (Kinase-Glo TM) Inhibition. Further: nearly all actives have a fitted effect of over 60% in size. Particulars: ATP luminescence, 8 min. On the procedure:
NCGC Assay Overview: NIH Molecular Libraries Screening Centers Network [MLSCN] NIH Chemical Genomics Center [NCGC] MLSCN Grant: None Luciferase (Kinase-Glo, Promega Corporation) was assayed for its ability to generate light using ATP and luciferin as substrates. The ATP concentration in the assay (10 uM) was within the linear range of enzyme activity for the assay conditions used.
NCGC Assay Protocol Summary: Four uL of substrate mix (final concentration, 50 mM imidazole pH 7.2, 50 mM KCl, 7 mM MgCl2, 10 uM ATP, 0.01% Tween 20, 0.05% BSA) was dispensed into white 1536 well plates. Twenty-three nL of compound was delivered by a pin tool and 2 uL of luciferase detection mix (Kinase-Glo, Promega)) was added. Following 8-minute incubation at ambient temperature, luminescence was measured by a ViewLux (Perkin Elmer) at 5 seconds exposure/plate.
On the technique in general: A counterscreen serves to expose hits that act by an unwanted route or on another target.

Where [1] appears, read: at 38.3 µM (top of the series) unless noted.

The entries are a selection whose mix differs from that of the whole data set. Calls of active or inactive are those of the source. The call rests on the fitted dose curve; in most records, active means well fitted inhibition curve with a large enough effect; inconclusive means small, poorly fitted or top-dose-only effect; inactive means flat fitted curve, though single readings scatter.
On the % scale 0 is the no-effect control and ±100 the full control effect.

Turning to `[N-]=[N+]=Nc1ccc([As](=O)(O)O)cc1`, the activity change, negative = inhibition under setting [1] was inactive: -4% [at 7.66 µM].
Consider `CN1CCC[C@H](OC(=O)C(c2ccccc2)c2ccccc2)C1`, for which the activity change, negative = inhibition under setting [1] is inactive: -3.81% [at 7.66 µM].
The same measure, in the same setting: the figure for `C[C@@H](O)COc1ccc([As](=O)(O)O)cc1N` is inactive: -3.66% [at 7.66 µM]; for `O=P(Nc1nccs1)(c1ccccc1)c1ccccc1` it is inactive: 3.83%; for `CC(C)C(=O)NC(Sc1ccccc1)C(Cl)(Cl)Cl` (centres undefined) it is inactive: -0.812%.
Still for that read-out and setting: under `c1nnnn1CCn1cnnn1` stands inactive: -4.63%; under `CC(=O)Nc1ccc(Oc2c([N+](=O)[O-])cc([N+](=O)[O-])cc2[N+](=O)[O-])cc1`, inactive: -1.73%.
The same measure, in the same setting: the figure for `O=P1(Nc2nc3ccc(Cl)cc3s2)COc2ccccc2O1` (centres undefined) is inactive: -5.17%; for `CCOc1ccc(C2=NCC(CBr)S2)cc1` (centres undefined) it is inactive: 1.84%; for `CC(C)(C)C(=O)NC(Sc1ccccc1)C(Cl)(Cl)Cl` (centres undefined) it is inactive: -1.5%.
As to `COC(=O)c1cc2c(s1)N=C(c1ccccc1)N(C)P2(=O)N1CCOCC1` (centres undefined), under setting [1], the activity change, negative = inhibition is inactive: -0.524%.
Same read-out and setting: the figure for `CC(=O)NC(SC(=S)N(CC(C)C)CC(C)C)C(Cl)(Cl)Cl` (centres undefined) is inactive: 1.57%.
The same measure, in the same setting: the figure for `Cc1ccc(OP(=O)(Nc2ccccn2)Oc2ccc(C)cc2)cc1` is inactive: 1.69%.
On the same count and under the same terms, the figure for `CN(C(=O)Cc1ccc(Cl)c(Cl)c1)[C@@H]1CCCC[C@@H]1N1CCCC1` is inactive: -1.71%.
In the case of `CCC(=O)N1C2C3N(C(=O)CC)C1C1N(C(=O)CC)C(C(N1C(=O)CC)N3C(=O)CC)N2C(=O)CC`, the activity change, negative = inhibition under setting [1] is inactive: -2.58%.
On the same count and under the same terms, the figure for `O=c1c2cc([N+](=O)[O-])ccc2[nH]c2c([N+](=O)[O-])cc([N+](=O)[O-])cc12` is inactive: -13.7%; for `O=C(NC1CCS(=O)(=O)C1)NP(=S)(Oc1ccccc1)Oc1ccccc1` (centres undefined) it is inactive: 2.84%.
On the same count and under the same terms, under `CCNC(=S)/N=C(\N)N[N+](=O)[O-]` stands inactive: -1.3%; under `c1ccc(-c2nn[nH]n2)c(-c2nn[nH]n2)c1`, inactive: 1.09%.
On the same count and under the same terms, under `CCOC(=O)NC(Sc1ccccc1)C(Cl)(Cl)Cl` (centres undefined) stands inactive: -2.49%; under `[N-]=[N+]=NCC(O)CN=[N+]=[N-]` (centres undefined), inactive: -2.68% [at 7.66 µM]; under `C(Cc1nn[nH]n1)c1nn[nH]n1`, inactive: -0.184% [at 7.66 µM].
Regarding `CCN(N=Nc1nonc1N)c1nonc1N`, the activity change, negative = inhibition under setting [1] was inactive: 2.05%.
`Cc1cc(SC(NC(=O)c2ccc(F)cc2)C(Cl)(Cl)Cl)ncn1` (centres undefined): the activity change, negative = inhibition under setting [1] is inactive: 4.61%.
Same read-out and setting: under `CCOP(=O)(Nc1ccccc1)OCC` stands inactive: 3.38%.
Consider `CN(C(=O)Cc1ccc(Cl)c(Cl)c1)[C@H]1CCCC[C@@H]1N1CCCC1`, for which the activity change, negative = inhibition runs as follows: (at 38.3 µM (top of the series)) inactive: -0.68% [middle of 5 runs]; (at 39.9 µM (top of the series)) inactive: 1.21%.
Regarding `CC(C)CC(=O)NC(Sc1ccc(Cl)cc1)C(Cl)(Cl)Cl` (centres undefined), under setting [1], the activity change, negative = inhibition was inactive: -1.23%.
Same read-out and setting: under `Oc1ccccc1CNc1ccccn1` stands inactive: -0.577%; under `O=C(NC(Sc1ccncn1)C(Cl)(Cl)Cl)c1ccccc1` (centres undefined), inactive: 0.639%.
Regarding `Cc1c2non([O-])c-2c(C)[n+](=O)[n+]1[O-]`, the activity change, negative = inhibition under setting [1] is inactive: 0.406%.
On the same count and under the same terms, under `NCC[C@@H](N)CSP(=O)(O)O` stands inactive: -3.77% [at 7.66 µM].
Still for that read-out and setting: under `NC(=O)c1cc([N+](=O)[O-])cc([N+](=O)[O-])c1N` stands inactive: -2.65%.
The same measure, in the same setting: under `Cc1ccc(N/C(=N/P(=O)(N2CCOCC2)N2CCOCC2)N2CCOCC2)cc1` stands inactive: -1.16%; under `COc1ccccc1OP(=O)(Nc1ccc(C)cn1)Oc1ccccc1OC`, inactive: -1.07%; under `O=[N+]([O-])c1ccc(C[As](=O)(O)O)cc1`, inactive: 2.62% [at 7.66 µM].
For the molecule `CN1CCCC(OC(=O)C(c2ccccc2)c2ccccc2)C1` (centres undefined), the activity change, negative = inhibition under setting [1] was inactive: -4.08%.
Still for that read-out and setting: the figure for `CCN(/C(=N/P(=O)(N1CCOCC1)N1CCOCC1)N1CCOCC1)c1ccc(OC)cc1` is inactive: 1.79%; for `CC(C)=N/N=C(\N)N[N+](=O)[O-]` it is inactive: 1.12%.
Same read-out and setting: the figure for `CN(C)C(=O)OCCc1n(C)cc[n+]1C` is inactive: -0.775%.
Turning to `CC(=O)C1=CCCC2CCC1N2` (centres undefined), the activity change, negative = inhibition under setting [1] is inactive: -3.39% [at 39.9 µM].
On the same count and under the same terms, the figure for `CC1CCN(C(=O)Oc2c(Cl)cc(Cl)c3cccnc23)CC1` is inactive: -1.89%; for `O=C(CO)Nc1ccc([As](=O)(O)O)cc1` it is inactive: -0.425% [at 7.66 µM]; for `COc1ccc(C2=NCC(CBr)S2)cc1` (centres undefined) it is inactive: 1.75%.
Still for that read-out and setting: the figure for `CC(=O)N1C2C3N(C(C)=O)C1C1N(C(C)=O)C(C(N1C(C)=O)N3C(C)=O)N2C(C)=O` is inactive: -2.66%.
The same measure, in the same setting: the figure for `O=[N+]([O-])c1cccc2n[nH]nc12` is inactive: -0.774%.
Turning to `Cc1ccc(NP(=O)(Oc2ccccc2)Oc2ccccc2)nc1`, the activity change, negative = inhibition under setting [1] was inactive: -2.01%.
Same read-out and setting: the figure for `O=[N+]([O-])c1cc([N+](=O)[O-])c(CCNc2ccccc2)c([N+](=O)[O-])c1` is inactive: -0.538%.
Same read-out and setting: the figure for `O=[N+]([O-])c1ncn(CCn2ncnc2[N+](=O)[O-])n1` is inactive: 0.964%.
